Consider two compounds from ChEMBL document CHEMBL3875233, “Non-kinase targets of protein kinase inhibitors” (Nat Rev Drug Discov, 2017).

Sequences of proteins named here, by UniProt entry; tags and fusion partners are left off. A change or cut given only in a name is not applied to a line headed by its entry.
UniProt P49674: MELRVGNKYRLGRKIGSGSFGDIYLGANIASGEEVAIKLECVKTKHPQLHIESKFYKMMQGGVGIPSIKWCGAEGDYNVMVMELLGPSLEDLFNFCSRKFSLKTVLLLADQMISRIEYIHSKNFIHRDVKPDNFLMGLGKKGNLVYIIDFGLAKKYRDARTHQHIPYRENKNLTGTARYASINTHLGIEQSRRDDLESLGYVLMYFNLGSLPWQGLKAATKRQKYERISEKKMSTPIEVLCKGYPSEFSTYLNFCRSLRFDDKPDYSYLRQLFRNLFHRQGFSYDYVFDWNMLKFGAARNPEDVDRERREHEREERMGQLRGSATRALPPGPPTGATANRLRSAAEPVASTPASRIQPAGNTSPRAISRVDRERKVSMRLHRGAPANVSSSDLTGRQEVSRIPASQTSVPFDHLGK
UniProt P42338: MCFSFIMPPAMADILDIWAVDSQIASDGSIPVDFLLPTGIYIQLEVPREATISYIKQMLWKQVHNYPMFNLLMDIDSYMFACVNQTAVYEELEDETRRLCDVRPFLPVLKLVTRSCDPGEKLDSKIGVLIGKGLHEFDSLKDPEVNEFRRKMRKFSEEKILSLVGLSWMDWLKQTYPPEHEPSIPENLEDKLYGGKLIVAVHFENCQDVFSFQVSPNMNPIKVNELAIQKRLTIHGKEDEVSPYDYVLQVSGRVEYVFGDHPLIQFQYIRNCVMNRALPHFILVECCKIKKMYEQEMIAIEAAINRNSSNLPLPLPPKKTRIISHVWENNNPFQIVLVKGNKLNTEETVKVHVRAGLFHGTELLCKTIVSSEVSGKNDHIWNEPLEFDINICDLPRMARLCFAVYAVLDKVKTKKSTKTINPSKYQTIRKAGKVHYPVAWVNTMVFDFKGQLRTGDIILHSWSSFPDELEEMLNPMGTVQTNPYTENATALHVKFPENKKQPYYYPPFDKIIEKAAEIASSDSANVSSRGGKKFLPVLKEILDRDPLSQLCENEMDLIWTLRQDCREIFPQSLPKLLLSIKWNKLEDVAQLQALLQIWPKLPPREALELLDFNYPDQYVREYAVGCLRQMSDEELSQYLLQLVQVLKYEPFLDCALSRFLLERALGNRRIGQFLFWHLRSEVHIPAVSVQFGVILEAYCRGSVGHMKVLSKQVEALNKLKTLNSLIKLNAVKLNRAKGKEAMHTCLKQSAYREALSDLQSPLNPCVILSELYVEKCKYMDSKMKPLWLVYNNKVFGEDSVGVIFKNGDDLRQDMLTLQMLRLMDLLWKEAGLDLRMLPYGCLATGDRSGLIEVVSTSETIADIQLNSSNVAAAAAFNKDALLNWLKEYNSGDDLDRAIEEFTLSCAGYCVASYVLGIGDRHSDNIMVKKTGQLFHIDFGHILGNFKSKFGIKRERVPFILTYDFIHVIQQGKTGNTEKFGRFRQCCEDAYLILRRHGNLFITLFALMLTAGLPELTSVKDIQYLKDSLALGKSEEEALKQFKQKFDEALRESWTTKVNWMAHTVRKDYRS

For assay [1], the target named is Casein kinase I isoform epsilon (Homo sapiens, UniProt P49674).
Assay [2] has as its target Phosphatidylinositol 4,5-bisphosphate 3-kinase catalytic subunit beta isoform (Homo sapiens, UniProt P42338). As to the kind of experiment: Inhibition of immobilized N-LY294002 bead binding to PI3Kbeta (unknown origin) expressed in HEK293T cells incubated for 1 hr by LC-MS/MS analysis. The class given is cell-based, HEK-293T.

In turn, `Nc1ncnc2c1c(COc1cccc(Cl)c1)nn2C1CCOCC1` returned an IC50 in assay [1] of 32 to 711 nM.
Regarding `O=c1cc(N2CCOCC2)oc2c(-c3ccccc3)cccc12` [LY-294002], in assay [2], the IC50 is 420 nM.

What is called IC50 is the concentration at which inhibition is half-maximal. A low value points to inhibition by little substance.
